## Measured affinities in a library of Ab-14 light chain variants

Reference: Engelhart et al. 2022, doi:10.1038/s41597-022-01779-4. File: FLAb, binding data.

Target peptide (SARS-CoV-2 spike, HR2 region): PDVDLGDISGINAS

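The starting antibody came from a phage panning campaign against this peptide. AAYL50 was designed without a model: most single CDR substitutions and a random sample of double and triple ones. AlphaSeq pools MATa yeast showing the antibodies with MATalpha yeast showing the peptide. Binding brings cells together so that they mate, and sequencing counts the barcode pairs among the diploids. A regression on co-assayed BCL2-family reference pairs converts the normalised counts of each replicate to an apparent Kd. There are three technical replicates.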

Each scFv is VH, three GGGGS repeats, VL, as in the parent Ab-14, and differs from it in the CDRs of the light chain only.
VH: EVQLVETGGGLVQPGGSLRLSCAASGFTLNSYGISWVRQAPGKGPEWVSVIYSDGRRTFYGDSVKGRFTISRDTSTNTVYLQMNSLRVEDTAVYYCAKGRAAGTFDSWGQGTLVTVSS
VL: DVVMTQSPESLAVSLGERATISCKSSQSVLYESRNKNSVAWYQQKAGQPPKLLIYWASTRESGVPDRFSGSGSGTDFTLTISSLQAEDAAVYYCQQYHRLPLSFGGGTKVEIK

Each variant's VL is given in full. Every variant below is changed at V29 of the VL (sequential numbering). Each Kd is an estimate from the mating assay, the geometric mean of the replicates in which the pair was seen; lower is stronger. An entry "no signal" has no value in the source: the pair was not observed among the diploids in any replicate. This suggests poor binding but is not conclusive. The list is sorted by this average, lowest first, undetected variants last. Nonspecific signal, from three strains lacking the peptide, appeared in 18% of pairings of library AAYL50, centred on 15 µM (5% of these signals below 970 nM); values are not corrected for it.

For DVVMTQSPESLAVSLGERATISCKYSQSGLYESRNKNSVAWYQQKAGQPPKLLIYWASQRESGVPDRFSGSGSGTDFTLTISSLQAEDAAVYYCQQYHRLPLSFGGGTKVEIK, the assay gave 2.2 nM (3 of 3 replicates).
For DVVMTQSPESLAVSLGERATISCKSSQSAPYESRNKNSVAWYQQKAGQPPKLLIYWASTREIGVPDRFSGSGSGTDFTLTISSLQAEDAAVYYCQQYHRLPLSFGGGTKVEIK, the assay gave 4.2 nM (3 of 3 replicates).
For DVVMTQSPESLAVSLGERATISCKSSVSNLKESRNKNSVAWYQQKAGQPPKLLIYWASTRESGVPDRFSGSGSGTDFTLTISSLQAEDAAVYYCQQYHRLPLSFGGGTKVEIK, the assay gave 8.5 nM (3 of 3 replicates).
For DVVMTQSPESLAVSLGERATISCKSSQSFLWESRNCNSVAWYQQKAGQPPKLLIYWASTRESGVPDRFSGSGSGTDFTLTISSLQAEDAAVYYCQQYHRLPLSFGGGTKVEIK, the assay gave 21 nM (3 of 3 replicates).
For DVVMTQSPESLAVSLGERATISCKSSQSMLYESRNITSVAWYQQKAGQPPKLLIYWASTRESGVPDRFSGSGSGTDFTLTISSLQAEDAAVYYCQQYHRLPLSFGGGTKVEIK, the assay gave 51 nM (3 of 3 replicates).
For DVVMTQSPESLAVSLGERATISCKSSQSYLYESRWKNSVAWYQQKAGQPPKLLIYWASTRESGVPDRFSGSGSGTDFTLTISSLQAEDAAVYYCQQYHRLPLSFGGGTKVEIK, the assay gave 61 nM (3 of 3 replicates).
For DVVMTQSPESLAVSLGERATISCKSSQSRLYEDRNANSVAWYQQKAGQPPKLLIYWASTRESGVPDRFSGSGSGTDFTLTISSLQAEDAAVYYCQQYHRLPLSFGGGTKVEIK, the assay gave 74 nM (3 of 3 replicates).
For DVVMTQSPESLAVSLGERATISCKSSQSELYESRNKNSWAWYQQKAGQPPKLLIYMASTRESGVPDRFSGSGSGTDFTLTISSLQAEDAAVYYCQQYHRLPLSFGGGTKVEIK, the assay gave 120 nM (3 of 3 replicates).
For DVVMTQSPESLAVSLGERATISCKSSQSWQYESRNKNSVAWYQQKAGQPPKLLIYWASTRESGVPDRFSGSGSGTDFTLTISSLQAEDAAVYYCQQYHRLPLSFGGGTKVEIK, the assay gave 5.3 µM (1 of 3 replicates).
For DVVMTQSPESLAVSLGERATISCKSSQSDLYESRNKNSHAWYQQKAGQPPKLLIYWASTRESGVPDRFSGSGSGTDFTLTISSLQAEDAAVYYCQQYMRLPLSFGGGTKVEIK, the assay gave no signal (0 of 3 replicates).
For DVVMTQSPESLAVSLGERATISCKSSQSLLYESRNKNSVAWYQQKAGQPPKLLIYWASTRESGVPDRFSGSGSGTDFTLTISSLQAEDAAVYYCQEYHPLPLSFGGGTKVEIK, the assay gave no signal (0 of 3 replicates).
For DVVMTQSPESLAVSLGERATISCKSSQSALCESRNKNSVAWYQQKAGQPPKLLIYWASTRESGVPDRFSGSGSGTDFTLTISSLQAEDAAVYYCQQYHRLPPSFGGGTKVEIK, the assay gave no signal (0 of 3 replicates).
For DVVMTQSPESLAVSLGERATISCKSSQSNLYESRNKNTVAWYQQKAGQPPKLLIYWASTRESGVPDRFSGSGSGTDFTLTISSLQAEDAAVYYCQQYHRHPLSFGGGTKVEIK, the assay gave no signal (0 of 3 replicates).
For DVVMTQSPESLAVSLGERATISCKSSQSFLYESRDKNSVAWYQQKAGQPPKLLIYWASTRESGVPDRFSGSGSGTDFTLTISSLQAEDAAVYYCPQYHRLPLSFGGGTKVEIK, the assay gave no signal (0 of 3 replicates).
For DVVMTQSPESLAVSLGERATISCKSSQSEFYESRNINSVAWYQQKAGQPPKLLIYWASTRESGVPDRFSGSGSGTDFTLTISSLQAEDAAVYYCQQYHRLPLSFGGGTKVEIK, the assay gave no signal (0 of 3 replicates).
For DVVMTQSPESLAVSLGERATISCKSSQSFLYESRNKNSVAWYQQKAGQPPKLLIYWASTRESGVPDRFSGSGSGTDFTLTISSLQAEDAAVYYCRQYHRLPLSFGGGTKVEIK, the assay gave no signal (0 of 3 replicates).

Again, the first 2 entries without any signal:

VL,apparent Kd,detected
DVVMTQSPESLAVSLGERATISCKSSQSDLYESRNKNSHAWYQQKAGQPPKLLIYWASTRESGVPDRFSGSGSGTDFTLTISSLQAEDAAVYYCQQYMRLPLSFGGGTKVEIK,no signal,0 of 3
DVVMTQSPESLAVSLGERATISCKSSQSLLYESRNKNSVAWYQQKAGQPPKLLIYWASTRESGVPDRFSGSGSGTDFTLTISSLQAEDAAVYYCQEYHPLPLSFGGGTKVEIK,no signal,0 of 3